# Yeast mating assay 1: variants of the scFv Ab-14

Reference: Engelhart et al. 2022, doi:10.1038/s41597-022-01779-4. File: FLAb, binding data.

Target: peptide PDVDLGDISGINAS, taken from heptad repeat 2 (HR2) of SARS-CoV-2 spike.

The variants keep the heavy chain, the linker and the frameworks of Ab-14 (scFv order VH, the linker GGGGSGGGGSGGGGS, VL).
VH: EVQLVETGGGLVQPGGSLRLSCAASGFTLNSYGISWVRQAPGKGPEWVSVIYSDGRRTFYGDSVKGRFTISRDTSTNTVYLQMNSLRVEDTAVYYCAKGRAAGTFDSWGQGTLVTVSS
VL: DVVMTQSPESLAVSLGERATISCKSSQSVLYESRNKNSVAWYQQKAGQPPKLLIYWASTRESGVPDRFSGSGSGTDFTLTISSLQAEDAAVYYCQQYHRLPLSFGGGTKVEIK

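Phage display of a naive human antibody library on the peptide gave the parent. AAYL50 was designed without a model: most single CDR substitutions and a random sample of double and triple ones. In AlphaSeq, yeast of one mating type display the scFv and yeast of the other type display the target. Binding brings cells together so that they mate, and sequencing counts the barcode pairs among the diploids. Each replicate has its own calibration line, from reference interactions of the BCL2 family. There are three technical replicates.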

Each variant is given by its three light chain CDRs, as the data file delimits them; those of the parent are KSSQSVLYESRNKNSVA, WASTRES, QQYHRLPLS. All variants listed here change N35 of the VL, counted from its first residue. Values are log10 of the apparent Kd in nM; lower means stronger binding. The mean shown is taken over the replicates in which the pair was detected. A pair that was not seen in any replicate is written "nd"; this usually means weak binding, but a binder can also be missed. For reference, the parent read 0.65 as the reference entry and 1.68 as a member of this library.

For KSSQSVLYESRMKNSVS / WASTRES / QQYRRLPLS, the assay gave 4.75 (1 of 3 replicates; controls 4 of 9). With KYSQSVLYESREKNSVA / WASTRES / HQYHRLPLS the result was 1.63 (3 of 3 replicates; controls 1 of 9). For KSSGSALYESRWKNSVA / WASTRES / QQYHRLPLS, the assay gave 4.70 (1 of 3 replicates; controls 4 of 9). The variant KSSQSVLYESREKNSVA / QASTREK / QQYHRLPLS gave 0.79 (3 of 3 replicates; controls 5 of 9). With NSSQSVLYESRQKNSVA / WASTRCS / QQYHRLPLS the result was 1.63 (3 of 3 replicates; controls 0 of 9). The variant KSTQSVLYESRDKNSVA / WASTRES / QQYHRLPLS showed nd (0 of 3 replicates; controls 0 of 9). The variant KSSQSVLYESRMKNSVA / WASNRVS / QQYHRLPLS showed 1.03 (3 of 3 replicates; controls 3 of 9).

For KSSQSVMYESRMKNSVA / WASTRES / QQYHRWPLS, the assay gave 2.32 (3 of 3 replicates; controls 1 of 9). With KSSQSVLDESRDKNSVA / WASTRES / QQYHRLPLS the result was 0.28 (3 of 3 replicates; controls 3 of 9). With KSSQSVLYESRPKNSVA / WASTRES / QMYHRLPLS the result was 3.54 (1 of 3 replicates; controls 6 of 9). The variant KSSQSVLYESRPKNSVA / WAWTQES / QQYHRLPLS gave nd (0 of 3 replicates; controls 1 of 9). With KSSQSVLYESRSKNSVA / WASTRES / VQYHRSPLS the result was 3.27 (1 of 3 replicates; controls 0 of 9). For KSSQSVLYESREIHSVA / WASTRES / QQYHRLPLS, the assay gave 1.50 (3 of 3 replicates; controls 3 of 9). For KSSQSVLYESRMKNSVA / WASTEES / QQYDRLPLS, the assay gave 4.53 (2 of 3 replicates; controls 5 of 9).

The variant KSSQSTLYESRIKNSVA / WASTRES / QQYHRLPDS showed nd (0 of 3 replicates; controls 1 of 9). The variant KSSQSVLHESRYKNSVA / WASTQES / QQYHRLPLS gave 2.60 (2 of 3 replicates; controls 1 of 9). The variant KSSQSVLYESRVGNSVA / WASTREL / QQYHRLPLS gave 0.85 (3 of 3 replicates; controls 2 of 9). The variant KSSQSVLYESRDKNSVA / WASTRES / QEYHRSPLS gave nd (0 of 3 replicates; controls 0 of 9). The variant KSSQSYLYESRYKNSVA / WASTRES / QQYHGLPLS showed 4.05 (3 of 3 replicates; controls 2 of 9). With KSYQSVLYESRTKNSVA / WASTRES / QNYHRLPLS the result was nd (0 of 3 replicates; controls 0 of 9). The variant KSSQSVLYESRCPNSVA / WASTRES / QQYWRLPLS showed 3.83 (1 of 3 replicates; controls 4 of 9).

The variant DSSQSVLYESRTKNSVA / WASTRES / IQYHRLPLS gave 4.84 (2 of 3 replicates; controls 1 of 9). For KSSQSVLYTSRFKNSVA / WASTRES / QQYHILPLS, the assay gave 2.70 (3 of 3 replicates; controls 3 of 9). For ISYQSVLYESRTKNSVA / WASTRES / QQYHRLPLS, the assay gave nd (0 of 3 replicates; controls 1 of 9). For KSSSSHLYESRVKNSVA / WASTRES / QQYHRLPLS, the assay gave 5.01 (2 of 3 replicates; controls 2 of 9). The variant KSSASVLYESRWKNSVA / WASTRES / QQYHRLDLS showed nd (0 of 3 replicates; controls 3 of 9). With KSSQSVLGESRFKNSVA / WASNRES / QQYHRLPLS the result was 1.01 (3 of 3 replicates; controls 1 of 9). With KSSQSVLYESRLKNSVA / YASTRES / QQYHRLPGS the result was 2.90 (3 of 3 replicates; controls 2 of 9).

The variant KSSQSDLYEARSKNSVA / WASTRES / QQYHRLPLS showed 0.76 (3 of 3 replicates; controls 3 of 9). The variant KSSQSVLYESRCKNSVA / AASTRES / QQYHRLPLS gave 0.78 (3 of 3 replicates; controls 1 of 9). The variant NSSQSVLYESRYKNSVA / WASTRES / QQYHRLPLS gave 2.09 (3 of 3 replicates; controls 2 of 9). With PSSQSVLYESRIKNSVA / WASTRES / QQYHRYPLS the result was nd (0 of 3 replicates; controls 1 of 9). For KSSQSVLYYSRWKNSVA / WASGRES / QQYHRLPLS, the assay gave nd (0 of 3 replicates; controls 2 of 9). The variant KSEQSVLYESRFKNSVA / WASTRES / QQYHRLPLS showed 4.21 (1 of 3 replicates; controls 3 of 9). With KSSQSSLYESRFKNSVA / WASTRES / QQYHRLGLS the result was nd (0 of 3 replicates; controls 0 of 9).

The variant KSSQSVNYESRTKNSVA / WASTRES / QQYHFLPLS showed 2.87 (3 of 3 replicates; controls 1 of 9).

Picked from the list: the 5 lowest averages where every replicate gave a value.

Variant KSSQSVLDESRDKNSVA / WASTRES / QQYHRLPLS showed 0.28 (3 of 3 replicates; controls 3 of 9).
Variant KSSQSDLYEARSKNSVA / WASTRES / QQYHRLPLS showed 0.76 (3 of 3 replicates; controls 3 of 9).
Variant KSSQSVLYESRCKNSVA / AASTRES / QQYHRLPLS showed 0.78 (3 of 3 replicates; controls 1 of 9).
Variant KSSQSVLYESREKNSVA / QASTREK / QQYHRLPLS showed 0.79 (3 of 3 replicates; controls 5 of 9).
Variant KSSQSVLYESRVGNSVA / WASTREL / QQYHRLPLS showed 0.85 (3 of 3 replicates; controls 2 of 9).

Three control strains display no target. For library AAYL50, 18% of the pairings with them gave a signal, with a median of 4.19 and one signal in twenty below 2.99, so weak values seen in few replicates may be background. For each scFv, signals with the empty controls are counted beside the result.